From patent US20210206847A1 come the findings set out here.

By UniProt entry, the sequences of proteins in these tests, tags left out. Residues count along the entry.
UniProt P55899, 24-297, chain 1 of 2: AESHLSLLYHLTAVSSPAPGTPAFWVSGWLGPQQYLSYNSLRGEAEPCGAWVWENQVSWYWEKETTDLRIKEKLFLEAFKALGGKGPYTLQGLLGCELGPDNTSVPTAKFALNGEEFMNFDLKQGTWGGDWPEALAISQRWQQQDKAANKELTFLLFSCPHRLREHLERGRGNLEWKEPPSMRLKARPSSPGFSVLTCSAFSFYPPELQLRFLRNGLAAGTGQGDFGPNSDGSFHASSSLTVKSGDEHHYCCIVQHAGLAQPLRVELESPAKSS

As a reminder, the Kd is a measure of binding affinity in units of concentration. A higher Kd goes with lower affinity.

For the test, the target named is biotin-labeled soluble FcRn protein (UniProt P55899). The test is described as follows: SPR; pH 6.0. In general terms: Surface plasmon resonance follows binding to a sensor surface in real time, without labels.

In turn, IgG1 Fc (from UniProt P01857 104-330) had a Kd of 77.3 nM.
